# Only a part is listed here, and it is no random draw. Active and inactive are the calls of the source. Rule as the data show it: active = fluorescence above about 89; inactive = the rest.
# Assay: green autofluorescence of compounds with GSH beads – biophysical, 488/530 nm, flow cytometry, artefact control, profiling panel (AID 1776);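 also: glutathione beads carrying GST-tagged Bcl family fusion proteins plus one bare bead set; values are compound well signal with DMSO vehicle wells as background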
# Conditions: compound fluorescence 488/530 nm, at 10 µM, active compounds read high
row,SMILES,fluorescence (KMESF)
1,CC(C)c1ccc(OP(C)(=O)Nc2ccc(SC(F)(F)F)cc2)cc1 (centres undefined),inactive: 18
2,CP(=O)(Nc1ccccc1F)Oc1ccccc1 (centres undefined),inactive: 35
3,O=C(OCCN1CCN(CCOCc2ccccc2)CC1)C(O)(c1ccccc1)c1ccccc1,inactive: 10
4,COc1ccc(OP(C)(=O)Nc2ccc(SC(F)(F)F)cc2)cc1 (centres undefined),inactive: 13
5,CCOC(=O)c1ccc(NP(C)(=O)Oc2ccc(F)cc2)cc1 (centres undefined),inactive: 24
6,CCN(CC)CCCOC(=O)C(O)(c1ccccc1)C1CCCCC1 (centres undefined),inactive: 19
7,CP(=O)(Nc1ccccc1)Oc1ccc(F)cc1 (centres undefined),inactive: 18
8,COc1ccc(OP(C)(=O)Nc2cccc(Br)c2)cc1 (centres undefined),inactive: 26
9,COc1ccc(NP(C)(=O)Oc2ccccc2OC)cc1 (centres undefined),inactive: 12
10,CN(C)CCOC(=O)C(O)(c1ccccc1)C1CCCCC1 (centres undefined),inactive: 12
11,O=[N+]([O-])c1cc([N+](=O)[O-])c(NCC2CCS(=O)(=O)C2)c([N+](=O)[O-])c1 (centres undefined),inactive: 12
12,CCOP(C)(=S)SCC(=O)NC(C)(CC)C(=O)O (centres undefined),inactive: 25
13,CP(=O)(Nc1ccc2c(c1)OCCO2)Oc1ccccc1 (centres undefined),inactive: 22
14,Cc1ccccc1NP(C)(=O)Nc1ccccc1C,inactive: 24
15,COc1ccc(OP(C)(=O)Nc2ccc(Br)cc2)cc1 (centres undefined),inactive: 6
16,CCN(CC)CC(O)COC(=O)C(O)(c1ccccc1)C1CCCCC1 (centres undefined),inactive: 7
17,CCc1ccc(OP(C)(=O)Nc2cccnc2)cc1 (centres undefined),inactive: 13
18,CP(=O)(Oc1ccccc1)N1CCOC1=O (centres undefined),inactive: 6
19,CP(=O)(Nc1ccc(Cl)cc1)Oc1ccc(F)cc1 (centres undefined),inactive: 17
20,CC(C)(C)c1ccc(OP(C)(=O)O)cc1,inactive: 13
21,COc1ccccc1OP(C)(=O)Nc1ccccc1Br (centres undefined),inactive: 9
22,CN(C)C(=O)c1c([N+](=O)[O-])cc([N+](=O)[O-])cc1[N+](=O)[O-],inactive: 13
23,CP(=O)(OC12CC3CC(CC(C3)C1)C2)OC12CC3CC(CC(C3)C1)C2,inactive: 25

row,SMILES,fluorescence (KMESF)
1,CCOC(=O)c1ccc(NP(C)(=O)Oc2ccc(Cl)cc2)cc1 (centres undefined),inactive: 10
2,Cc1cc(C)cc(OP(C)(=O)Nc2cccc(C(F)(F)F)c2)c1 (centres undefined),inactive: 11
3,COc1ccc(OP(C)(=O)Nc2ccccc2Br)cc1 (centres undefined),inactive: 19
4,COc1ccccc1OP(C)(=O)Nc1ccc(C)c(C)c1 (centres undefined),inactive: 5
5,Cc1nc2ccc3ccccc3c2o1.O=[N+]([O-])c1cc([N+](=O)[O-])c(O)c([N+](=O)[O-])c1,inactive: 9
6,CP(=O)(OCCOc1ccccc1)OCCOc1ccccc1,inactive: 11
7,CP(=O)(Nc1ccc(Cl)cc1Cl)Oc1ccccc1 (centres undefined),inactive: 16
8,CN(C)CCOC(=O)C(O)(c1ccccc1)C1CCCC1 (centres undefined),inactive: 27
9,COc1ccc(OP(C)(=O)Nc2ccccn2)cc1 (centres undefined),inactive: 52
10,O=[N+]([O-])c1cc([N+](=O)[O-])c(Nc2ccccn2)c([N+](=O)[O-])c1,inactive: 52
11,Cc1c(NP(C)(=O)Oc2ccc(C(C)C)cc2)c(=O)n(-c2ccccc2)n1C (centres undefined),inactive: 28
12,CCc1ccc(OP(C)(=O)O)cc1,inactive: 22
13,COc1ccccc1OP(C)(=O)Nc1ccc(C)cc1C (centres undefined),inactive: 9
14,CP(=O)(Nc1ccccn1)Oc1ccccc1 (centres undefined),inactive: 11
15,CCN(CC)CCCOC(=O)C(O)(c1ccccc1)c1ccccc1,inactive: 11
16,Cc1cccc(C)c1OP(C)(N)=O (centres undefined),inactive: 10
17,CC(C)(C)c1ccc(OP(C)(=O)Nc2ccc(SC(F)(F)F)cc2)cc1 (centres undefined),inactive: 5
18,O=[N+]([O-])c1ccc2c(c1)C=Nc1ccccc1O2,inactive: 15
19,CCOC(=O)c1ccc(NP(C)(=O)Oc2ccccc2)cc1 (centres undefined),inactive: 10
20,Cc1ccc(NP(C)(=O)Oc2ccccc2)c(C)c1 (centres undefined),inactive: 46
21,COc1ccccc1OP(C)(=O)Nc1ccc(C)cc1 (centres undefined),inactive: 21
22,COc1ccc(OP(C)(=O)Nc2cccc(F)c2)cc1 (centres undefined),inactive: 25
23,COc1ccccc1OP(C)(=O)Nc1cc(Cl)ccc1C (centres undefined),inactive: 11

row,SMILES,fluorescence (KMESF)
1,Cc1cc(C)cc(OP(C)(N)=O)c1 (centres undefined),inactive: 15
2,CP(=S)(Nn1cnnc1)Oc1ccccc1 (centres undefined),inactive: 51
3,COc1ccccc1OP(C)(=O)Nc1ccccc1 (centres undefined),inactive: 20
4,CP(=O)(Nc1ccccc1Br)Oc1ccccc1 (centres undefined),inactive: 12
5,CP(=O)(Oc1ccccc1)OC(c1ccccc1)C(F)(F)F (centres undefined),inactive: 16
6,Cc1cccc(C)c1OP(C)(=O)Nc1ccc(SC(F)(F)F)cc1 (centres undefined),inactive: 15
7,Cc1cc(C)cc(OP(C)(=O)Nc2ccc(SC(F)(F)F)cc2)c1 (centres undefined),inactive: 17
8,CP(=O)(NC(=O)Nc1ccccc1)Oc1ccccc1 (centres undefined),inactive: 5
9,CCOP(C)(=S)SCC(=O)NC(C)C(=O)O (centres undefined),inactive: 15
10,CCOC(=O)c1ccc(NP(C)(=O)Oc2ccc(OC)cc2)cc1 (centres undefined),inactive: 17
11,CP(=O)(Nc1ccccn1)Oc1ccc(Cl)cc1 (centres undefined),inactive: 16
12,O=[N+]([O-])c1cc([N+](=O)[O-])c(-n2nnc3ccccc32)c([N+](=O)[O-])c1,inactive: 17
13,Cc1nc2ccc3ccccc3c2s1.O=[N+]([O-])c1cc([N+](=O)[O-])c(O)c([N+](=O)[O-])c1,inactive: 35
14,CN1CCCCC1COC(=O)C1(O)c2ccccc2CCc2ccccc21 (centres undefined),inactive: 16
15,COc1ccccc1OP(C)(=O)Nc1c(C)cccc1C (centres undefined),inactive: 32
16,CP(=O)(Nc1ccc(SC(F)(F)F)cc1)Oc1ccccc1 (centres undefined),inactive: 10
17,CCCOc1ccc(NP(C)(=O)Oc2ccc(Cl)cc2)cc1 (centres undefined),inactive: 12
18,CC1=NCCc2c1[nH]c1ccccc21.O=[N+]([O-])c1cc([N+](=O)[O-])c(O)c([N+](=O)[O-])c1,inactive: 13
19,Cc1cc(C)cc(OP(C)(=O)Nc2ccc(C)cc2C)c1 (centres undefined),inactive: 52
20,CCOC(=O)c1ccc(NP(C)(=O)Oc2cc(C)cc(C)c2)cc1 (centres undefined),inactive: 22
21,CP(=O)(Nc1cccc(Br)c1)Oc1ccccc1 (centres undefined),inactive: 13
22,Cc1cc(C)cc(OP(C)(=O)Nc2ccccn2)c1 (centres undefined),inactive: 33
23,Cc1ccc(C)c(NP(C)(=O)Oc2ccccc2)c1 (centres undefined),inactive: 32

# From PubChem BioAssay AID1776 (NMMLSC, 2009)
